Experimental data as given in US11759520B1, “Theranostics for protein misfolding diseases” (UNM Rainforest Innovations, priority 2018, dated 2023).
Like-named read-outs stand apart in the source and are kept apart here.

The chains behind the UniProt entries cited, without tags or fusion partners. Residues count along the entry.
UniProt P05067, 672-711 limits assumed: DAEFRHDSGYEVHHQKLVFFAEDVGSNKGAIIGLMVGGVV

Target: T1, Aβ40 fibrils (Homo sapiens, UniProt P05067)
T1 construct: mixed with Aβ40 fibrils (5 μM) incubated in Tris pH 8.0 (A) or PB pH 7.4 (B)
Assay: Dissociation constant (binding affinity) for Aβ40 fibrils
Procedure: Quantitative assessment of OPE sensor performance towards A1340 fibrils at a 5 to 1 protein to sensor molar ratio was analyzed by calculating an amyloid detector factor using the equation shown in FIG. 13, where F(dye-in-buffer), F(dye+fibrils) and F(dye+monomers) are the integrated emission intensities for sensor alone, sensor in the presence of fibrils, and sensor in the presence of monomers, respectively. Using this equation, positive ADF values indicate selective sensing of fibrils over monomers, while negative ADF values indicate selective sensing of monomers. ADF values close to zero indicate no selective sensing.

For `Cc1ccc2c(c1)sc(-c1ccc(N(C)C)cc1)[n+]2C.[Cl-]` [ThT, thioflavin T, reference compound], the Kd (Aβ40 fibrils produced in pH 7.4 PB, read-out: KD (Dissociation Constant), Aβ40 in PB) was 5.1 µM and the Kd (Aβ40 fibrils produced in pH 8.0 Tris, read-out: KD (Dissociation Constant), Aβ40 in Tris) was 2.7 µM.
